Chains of the proteins cited; added tags and fusions are not shown.
UniProt P15559, whole entry, looked up: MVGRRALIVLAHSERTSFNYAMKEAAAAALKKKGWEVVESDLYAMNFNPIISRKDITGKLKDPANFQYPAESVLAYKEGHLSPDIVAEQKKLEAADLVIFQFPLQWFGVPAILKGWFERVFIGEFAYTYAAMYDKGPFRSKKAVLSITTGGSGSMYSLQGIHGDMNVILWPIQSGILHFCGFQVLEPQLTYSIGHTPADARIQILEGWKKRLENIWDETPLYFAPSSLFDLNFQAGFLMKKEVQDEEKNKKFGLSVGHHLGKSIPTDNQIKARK

In ChEMBL document CHEMBL1926667, “The synthesis of 2-nitroaryl-1,2,3,4-tetrahydroisoquinolines, nitro-substituted 5,6-dihydrobenzimidazo[2,1-a]isoquinoline N-oxides and related heterocycles as potential bioreducible substrates for the enzymes NAD(P)H: quinone oxidoreductase 1 and E. coli nitroreductase” (Bioorg Med Chem Lett, 2011):

Assays:
[1] = molecular target: NAD(P)H dehydrogenase [quinone] 1 (Homo sapiens) (UniProt P15559); test: Activation of human NQO1 assessed as specific activity per mg of protein at 100 uM by measuring decrease in substrate concentration by HPLC analysis
Summary of the method: (§1)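 Reduction by human NQO1 or E. coli NR followed by the disappearance of substrate over time; specific activity is the rate of substrate reduction at 37 °C. Relative activity is the specific activity compared with CB-1954.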

[2] = molecular target: NAD(P)H dehydrogenase [quinone] 1 (Homo sapiens) (UniProt P15559); test: Activation of human NQO1 assessed as decrease in substrate concentration at 100 uM by HPLC analysis relative to CB-1954; summary of the method: as §1
[3] = molecular target: NAD(P)H dehydrogenase [quinone] 1 (Homo sapiens) (UniProt P15559); test: Activation of human NQO1 assessed as decrease in NADH concentration at 100 uM relative to CB-1954
[4] = molecular target: NAD(P)H dehydrogenase [quinone] 1 (Homo sapiens) (UniProt P15559); test: Activation of human NQO1 assessed as specific activity per mg of protein at 100 uM by measuring decrease in NADH concentration

Structure (SMILES) | Activity [1] [µmol/min] | fold change (FC) [2] | fold change (FC) [3] | Activity [4] [µmol/min]
NC(=O)c1cc(N2CCc3ccc([N+](=O)[O-])cc3C2)c([N+](=O)[O-])cc1[N+](=O)[O-] | < 0.001 | < 0.16 | – | –
NC(=O)c1cc(N2CCc3c(cccc3[N+](=O)[O-])C2)c([N+](=O)[O-])cc1[N+](=O)[O-] | 0.0014 | 0.23 | – | –
O=C(O)c1cc([N+](=O)[O-])cc([N+](=O)[O-])c1N1CCc2ccc([N+](=O)[O-])cc2C1 | – | – | 3.2 | 0.02
O=[N+]([O-])c1ccc(N2CCc3c(cccc3[N+](=O)[O-])C2)c([N+](=O)[O-])c1 | < 0.001 | < 0.16 | – | –
O=C(O)c1cc([N+](=O)[O-])cc([N+](=O)[O-])c1N1CCc2c(cccc2[N+](=O)[O-])C1 | – | – | 6.1 | 0.038
